One data set can be described thus: Plasma stability. The note with it: mouse plasma, 37 °C.
Data set [1] can be described thus: Solubility and chemical stability in aqueous buffer by 1H 1D NMR. The following applies: aqueous buffer pH = 7.5, T = 25 °C, 1H 1D NMR over time. Format: physicochemical.

`CN[C@@H](C)C(=O)NC(Cc1cc(C)c(C(F)(F)F)cc1F)C(=O)N1CCC[C@H]1C(=O)N[C@@H]1CCc2c(OS(=O)(=O)F)cccc21` (mixture of isomers) [Compound 3, (1R)-1-((2S)-1-(3-(2-fluoro-5-methyl-4-(trifluoromethyl)phenyl)-2-((S)-2-(methylamino)propanamido)propanoyl)pyrrolidine-2-carboxamido)-2,3-dihydro-1H-inden-4-yl sulfurofluoridate]: in the data set “Plasma stability”, the “plasma stability (in words)” value is reported as “less soluble in plasma, but still long-lived”. On to `CN[C@@H](C)C(=O)N[C@H](C(=O)N1CCC[C@H]1C(=O)N[C@@H]1CCc2c(OS(=O)(=O)F)cccc21)C1CCCCC1` [Compound 2, (R)-1-((S)-1-((S)-2-cyclohexyl-2-((S)-2-(methylamino)propanamido)acetyl)pyrrolidine-2-carboxamido)-2,3-dihydro-1H-inden-4-yl sulfurofluoridate], for which, in data set [1], the “chemical stability in aqueous buffer” value is “long-lived (several hours)”.
